The target in the experiment is PRMT5/MEP50 complex (Homo sapiens, UniProt O14744+Q9BQA1).

Chains of the proteins cited; added tags and fusions are not shown. Lines headed by an entry give the natural chain unless they say otherwise; changes in a name come on top.
UniProt O14744: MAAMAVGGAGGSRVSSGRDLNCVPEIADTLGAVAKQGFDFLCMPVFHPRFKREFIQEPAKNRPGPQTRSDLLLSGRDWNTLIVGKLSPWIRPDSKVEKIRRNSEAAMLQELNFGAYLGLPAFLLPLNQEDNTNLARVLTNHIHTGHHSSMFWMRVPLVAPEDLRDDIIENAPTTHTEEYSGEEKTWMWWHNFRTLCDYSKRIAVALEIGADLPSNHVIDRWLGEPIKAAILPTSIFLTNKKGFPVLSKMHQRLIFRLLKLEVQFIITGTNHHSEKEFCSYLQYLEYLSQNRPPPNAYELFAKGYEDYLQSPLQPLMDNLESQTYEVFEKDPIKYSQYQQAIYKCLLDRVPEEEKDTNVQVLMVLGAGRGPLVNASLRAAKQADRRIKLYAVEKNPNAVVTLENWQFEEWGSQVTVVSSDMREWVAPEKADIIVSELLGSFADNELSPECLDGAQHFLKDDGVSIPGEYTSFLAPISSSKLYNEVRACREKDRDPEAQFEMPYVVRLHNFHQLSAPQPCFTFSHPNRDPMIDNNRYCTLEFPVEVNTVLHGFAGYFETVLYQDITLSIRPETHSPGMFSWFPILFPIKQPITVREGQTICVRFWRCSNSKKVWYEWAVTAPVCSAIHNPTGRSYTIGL
UniProt Q9BQA1: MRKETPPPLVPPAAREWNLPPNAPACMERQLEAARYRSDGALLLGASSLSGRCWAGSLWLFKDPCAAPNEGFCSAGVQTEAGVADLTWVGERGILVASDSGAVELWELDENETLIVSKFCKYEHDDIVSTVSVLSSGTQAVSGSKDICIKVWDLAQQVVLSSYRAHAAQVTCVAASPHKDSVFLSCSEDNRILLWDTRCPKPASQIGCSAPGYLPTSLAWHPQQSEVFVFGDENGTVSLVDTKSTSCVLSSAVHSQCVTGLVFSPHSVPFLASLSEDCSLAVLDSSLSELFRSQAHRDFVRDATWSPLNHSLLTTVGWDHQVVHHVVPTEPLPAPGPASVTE

Molecules are shown by their SMILES.

Turning to `CC(=O)N1CC2(CC(Nc3cc4c(cn3)C3(CC3)CN(C[C@H](O)CN3CCc5ccccc5C3)C4=O)C2)C1`, the Ka was 3.47 10^5/Ms.

Source of the values: ChEMBL document CHEMBL6087464, “Design, Synthesis, and Biological Evaluation of 3,4-Dihydroisoquinolin-1(2H)-one Derivatives as Protein Arginine Methyltransferase 5 Inhibitors for the Treatment of Non-Hodgkin's Lymphoma” (J Med Chem, 2025).
